From PubChem BioAssay AID651568 (National Center for Advancing Translational Sciences (NCATS), 2012)
This is a selection; strong and weak results do not stand in their true shares. Records with an inconclusive call do not appear. Calls of active or inactive are those of the source. Calls follow the shape of the dose curve; as a rule, active = well fitted inhibition curve with a large enough effect; inconclusive = small, poorly fitted or top-dose-only effect; inactive = no such curve, though single readings can be large or run the other way.
% is scaled to controls: 0 for no effect and ±100 for the full control effect.

Assay: qHTS Assay to Find Inhibitors of Chronic Active B-Cell Receptor Signaling: Hit Validation in Renilla Reporter Assay; also: nearly all actives have a fitted effect of over 70% in size
Details: TMD8 IkB-Renilla luciferase reporter, NF-kB signaling; at 57.5 µM (top of the series)
Description: Diffuse large B-cell lymphoma (DLBCL) is the most common category of non-Hodgkin lymphoma, with ~20,000 new cases per year in the United States. DLBCL should be regarded as a collection of different neoplasms. Microarray gene expression analysis has defined two principal types of DLBCL, named for their similarity to normal B cell stages or activation states: a germinal center B-cell (GCB) type, and an activated B-cell (ABC) type. In ABC-DLBCL, a constitutive high-level activity of the NF-kappaB family of transcription factors has been observed (1) and NF-kappaB target genes are more highly expressed in ABC primary tumors than in GCB tumors. Functional studies have shown a constitutive high-level activity of the IkappaB (inhibitor of kappa-B) kinase (IKK) complex. […] Further analysis of DLBCL primary tumors for NF-kappaB target gene expression imply that although CARD11 is required for constitutive IKK activity in all ABC-DLBCL lines, mutations in CARD11 may be the root cause of IKK activation only in lines or tumors with such mutations. In other words, CARD11 mutations may explain NF-kappaB activation in only 10% of ABC-DLBCL cases. […] This process has been termed 'chronic active BCR signaling' (CABS). […]
For `COc1ccc(C2=NCC(CBr)S2)cc1` (stereo unspecified), the activity change, negative = inhibition was inactive: 10.3%.
